Values quoted from earlier work in US7012061B1 (New York University, priority 1998, dated 2006).

Key:
[1] = test system: cerebral endothelial cells; conditions: cited from earlier work
NOS = conditions: rat, in vivo; cited from earlier work

| SMILES | Cytokine-induced disruption of the BBB in vitro [1] | Increased permeability of the BBB (NOS) | Meningeal NO production (NOS) |
| --- | --- | --- | --- |
| COc1ccc2c(c1)c(CC(=O)O)c(C)n2C(=O)c1ccc(Cl)cc1 [Indomethacin] | abolished | – | – |
| N=C(N)NN [amino guanidine] | – | attenuated | blocked |
